Measurements published in patent US20230201290A1, “TGF-BETA INHIBITION, AGENTS AND COMPOSITION THEREFOR” (GMP BIOTECHNOLOGY LIMITED, priority 2020, published 2023).

Test system: IL-6
Settings: pancreatic cancer patients of P001

Substance: cggcatgtct attttgta (antisense CGGCATGTCTATTTTGTA; chemistry not given here) [OT-101]
- patients with elevated IL-6 showing significant reduction in IL-6 level following 1st cycle of dosing: 6 of 9
